Details: radioimmunoassay
Excerpt: MATERIALS AND METHODS Mice.-6-8-week-old male DBA/2 mice weighing 20-25 g were purchased from the Jackson Laboratory, Bar Harbor, Maine. They were maintained on normal laboratory chow and acid water ad. lib. Mouse leukaemia.-P388 lymphocytic leu- kaemia was supplied by Dr Daniel Griswold, Southern Research Institute, Birmingham, Alabama, and serially transplanted as ain ascites tumour at weekly intervals ([…] every 7 days in McCoy's 5a medium. Gibco, Grant Island, NY). […] Ill addition to an un- treated control group, 5 animals were implanted with minipumps containing 0.900 NaCl. Seven days after cell injection, the mice of the untreated control and treated groups were killed, femurs isolated, and marrow cells washed out with McCoy's 5a medium. Appro- priate dilutions of the leukaemic femoral marrow cells were injected i.v. into groups of 10 DBA/2 mice. Eight days later, the recipient mice were killed, spleens removed and fixed in Bouin's solution. The number of surface nacroscopic, leukaemic colony-forming units (LCFU-S) were counted with a dissecting microscope, and the fraction of surviving LCFU per femur determined. Pharmacokinetic studies.-On Day 0, 106 P388 ascites cells were injected i.v. into groups of 30 DBA/2 mice. […] For the C.i.p. group, blood samples from at least 3 mice were col- lected in heparinized tubes by heart puncture every day for 6 days. […] At least 3 mice were killed at each sampling time. Blood samples were centrifuged at 2,000 rev/min and 4?C for 10 min and the plasmas separated and immediately stored at -20?C. […] Data analysis-Statistical analysis of the differences betwNeen LCFU dose-response (i.e., drug dose vs fraction of CFU surviving per femur) curves for the two different treat- ments used the analysis of covariance method (Snedecor & Cochran, 1979). […] I. Intravenous administration. Cancer Chemother. Pharmacol., 1, 177. […] II. Intra- cavitary administration. Cancer Chemother. Pharmacol., 2, 127. BAKER, L. H., OPIPARI, M. I., WILSON, H., BOTTOMLEY, R. & COLTMAN, C. A., JR. […] Obstet. Gynecol., 52, 146. BARRANCO, S. C. […] Ed. Carter, Crooke & Umezawa. […]

Substance: bleomycin
- total plasma AUC for 6 days (continuous i.p. infusion (osmotic minipump), 8 u/kg/day for 6 days): 89.0 mu.h/ml
- total 6-day plasma AUC (intermittent i.p. bolus, 8 u/kg/day for 6 days, from data obtained on Day 5): 90.8 mu.h/ml
- terminal-phase plasma t1/2 (intermittent i.p. bolus, 8 u/kg/day, sampled 5-120 min after the dose on Day 5, single exponential fit): 15 min

Source: paper PMC2010280 (British Journal of Cancer, 1980)
